## Reported properties for industrial, environmental and drug-like chemicals

From the experimental data distributed with OPERA 2.9.

The melting point is given in degrees Celsius.
Boiling points are in °C, nominally at 760 mmHg.
The octanol-water partition coefficient is given as log10; larger values mean a more lipophilic compound.
Solubility in water is on a log10 molar scale (set defined at 25 °C).
Vapor pressures (log10 mmHg) refer to near room temperature, 15 to 30 °C; higher is more volatile.
Henry's law constant (air-water partitioning) is log10 of atm·m3/mol, nominally at 25 °C.
fu is the fraction unbound in human plasma, from 0 to 1.
Clint is human hepatic intrinsic clearance in µL/min per million cells; 0 means that no clearance was seen.
Cells with "–" have no entry in this list.

MP (°C) | bp (°C) | log Kow | log S (log10 mol/L) | log VP (log10 mmHg) | log Henry constant (log10 atm·m3/mol) | fu | Clint (µL/min/10^6 cells) | SMILES | name
112.8 | 270.9 | 0.899 | – | -4.949 | – | – | – | CC1(C)[C@H]2[C@H](O)OC(=O)[C@H]21 | –
– | – | – | -0.475 | -1.709 | – | – | – | O=c1cccccc1O | Tropolone
– | – | 0.53 | -1.647 | – | – | – | – | CCOc1ccc(NC(=O)NN)cc1 | N-(4-Ethoxyphenyl)hydrazinecarboxamide
– | – | 5.705 | -5.336 | – | – | – | – | CC[C@]12CC[C@@H]3C4=C(CC[C@H]3[C@@H]1CC[C@@H]2O)CC(OC)=CC4 | (17Beta)-13-Ethyl-3-methoxygona-2,5(10)-dien-17-ol
205 | – | – | -1.532 | – | – | – | – | CC(C)C(NC(N)=O)C(=O)O (stereo unspecified) | 2-(carbamoylamino)-3-methylbutanoic acid
20 | – | 5.52 | – | -4.983 | – | – | – | Brc1cccc(Oc2ccc(Br)c(Br)c2)c1 | BDE-35
– | 103.9 | – | – | 1.479 | – | – | – | C=C[Si](C)(OC)OC | Vinylmethyldimethoxysilane
-20.07 | – | – | – | 1.904 | – | – | – | C=C[Si](C)(C)Cl | Chloro(dimethyl)vinylsilane
65.7 | 323.7 | – | -7.772 | -3.618 | – | – | – | CCC[C@H]1CC[C@H]([C@H]2CC[C@H](CC)CC2)CC1 | –
-23.98 | – | 1.055 | – | -2.846 | – | – | – | O[C@H]1CO[C@H]2OCC[C@H]21 | (3R,3aS,6aR)-Hexahydrofuro[2,3-b]furan-3-ol
– | – | – | – | – | – | 0.0956 | 9.63 | C[C@@H]1C[C@H]2[C@@H]3CCC4=CC(=O)C=C[C@]4(C)[C@@]3(F)[C@@H](O)C[C@]2(C)[C@@]1(O)C(=O)COP(=O)([O-])[O-].[Na+].[Na+] | Dexamethasone sodium phosphate
– | – | 0.8 | -2.899 | – | – | 0.96 | – | CC(C)(C)C(=O)OCOP(=O)(COCCn1cnc2c(N)ncnc21)OCOC(=O)C(C)(C)C | Adefovir dipivoxil
121.3 | – | – | -6.259 | -9.929 | – | – | – | O[C@@H](CN(Cc1ccccc1)C[C@H](O)[C@H]1CCc2cc(F)ccc2O1)[C@@H]1CCc2cc(F)ccc2O1 (relative stereo) | –
68.6 | – | – | -2.833 | – | – | – | – | COC(=O)c1cc(CCl)nn1-c1ncccc1Cl | –
69 | 287.1 | 3.3 | -3.654 | -3.267 | – | – | – | Nc1ccccc1-c1cc(F)c(F)c(F)c1 | 3',4',5'-Trifluoro[1,1'-biphenyl]-2-amine
– | – | 5.2 | -3.921 | -1.312 | – | – | – | CCCC(=O)OC(C)C1CCCCC1 (stereo unspecified) | 1-Cyclohexylethyl butyrate
– | – | 5.93 | -8.649 | -0.952 | – | – | – | C=CC(F)(F)C(F)(F)C(F)(F)C(F)(F)C(F)(F)C(F)(F)C(F)(F)C(F)(F)F | 1H,1H,2H-Perfluoro-1-decene
– | – | 6.3 | -8.068 | – | – | – | – | CCCCC(CC)COCCCNC(=O)Nc1cccc2c(NC(=O)NCCCOCC(CC)CCCC)cccc12 (stereo unspecified) | –
– | 331 | 0.841 | – | -6.28 | – | – | – | CC(C)(O)C(=O)c1ccc(OCCO)cc1 | 2-Hydroxy-1-[4-(2-hydroxyethoxy)phenyl]-2-methylpropan-1-one
– | – | 0.91 | – | 0.196 | – | – | – | CC(C)=CCO | 3-Methyl-2-buten-1-ol
225.7 | – | 5.2 | -6.964 | – | – | – | – | COc1cc(N=Nc2ccc([N+](=O)[O-])cc2)ccc1N=Nc1ccc(O)cc1 | C.I. Disperse Orange 29
– | – | – | -1.642 | -4.309 | – | – | – | COC(=O)c1nccnc1N | Methyl 3-aminopyrazinecarboxylate
190 | 458 | – | -2.883 | – | – | – | – | Nc1ccc2cc(S(=O)(=O)O)cc(O)c2c1 | 6-Amino-4-hydroxynaphthalene-2-sulfonic acid
– | – | 2.57 | – | – | – | 0.1416 | 26.56 | C=CCc1ccc(OC)c(OC)c1 | Methyleugenol
– | – | 1.65 | -2.074 | – | – | – | – | COC(=O)c1cc(C(=O)O)cc([N+](=O)[O-])c1 | 1,3-Benzenedicarboxylic acid, 5-nitro-, 1-methyl ester
– | – | 4.67 | -4.75 | – | – | – | – | O=C(O)CCCCCCCCCCCCCCC(=O)O | Hexadecanedioic acid
163 | – | – | -5.25 | -9.783 | – | – | – | COc1cc(OC)nc(Sc2cccc3c2C(=O)OC3C)n1 (stereo unspecified) | Pyriftalid
– | 278.3 | – | – | -9.113 | – | – | – | CCN1CCN(CCC(=O)OCC(CC)(COC(=O)CCN2CCN(CC)CC2)COC(=O)CCN2CCN(CC)CC2)CC1 | –
-25.5 | – | 2.59 | -1.6 | -1.648 | – | – | – | CCCCCCCC(=O)N(C)C | N,N-Dimethyloctanamide
– | – | 6.35 | -7.574 | – | – | – | – | CCCCCCCCCCCCS | 1-Dodecanethiol
– | – | – | – | -5.021 | -8.524 | – | – | O=C(O)Cc1cccc2ccccc12 | 1-Naphthaleneacetic acid
30.3 | – | 1.25 | – | -5.897 | – | – | – | CCCC(C)=NO[Si](ON=C(C)CCC)(ON=C(C)CCC)ON=C(C)CCC | –
208.7 | – | 7.35 | -5.977 | – | – | – | – | CO[C@H]1C[C@H](O[C@H]2[C@H](C)O[C@@H](O[C@@H]3C(C)=CC[C@@H]4C[C@@H](C[C@]5(CC[C@H](C)[C@@H](C6CCCCC6)O5)O4)OC(=O)[C@@H]4C=C(C)[C@@H](O)[C@H]5OCC(=CC=C[C@@H]3C)[C@]54O)C[C@@H]2OC)O[C@@H](C)[C@@H]1O | –

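OPERA's authors assembled the values from existing databases and did not measure them anew. The files give a single number for a compound and property, which may rest on several reports. Conditions of the individual experiments are not part of the data. The measured form (salt, isomer or mixture) is not always the one drawn. Unmarked limits or estimates from the upstream databases cannot be ruled out.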